This is an account of results in PubChem BioAssay AID2563 (Broad Institute, 2010).

Sequences of proteins named here, by UniProt entry; tags and fusion partners are left off.
UniProt Q03530, whole entry: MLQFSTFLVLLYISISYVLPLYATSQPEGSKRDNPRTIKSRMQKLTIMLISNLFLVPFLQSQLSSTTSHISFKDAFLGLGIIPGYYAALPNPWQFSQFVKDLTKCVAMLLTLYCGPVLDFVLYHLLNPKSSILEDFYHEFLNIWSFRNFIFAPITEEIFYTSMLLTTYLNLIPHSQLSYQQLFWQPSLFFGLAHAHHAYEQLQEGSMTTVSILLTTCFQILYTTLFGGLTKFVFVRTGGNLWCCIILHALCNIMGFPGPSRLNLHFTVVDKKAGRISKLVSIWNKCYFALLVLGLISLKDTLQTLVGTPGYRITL

The structures appear in SMILES notation. This is a selection; strong and weak results do not stand in their true shares. Activity calls are given as the source filed them.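 How the source made its calls: active means fall in fluorescence gain of 50% or more versus controls, with final raw signal at or below 3038400; inconclusive means same 50% fall but final raw signal above 3038400; inactive means fall in fluorescence gain under 50%.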

The assay has as its target CAAX prenyl protease 2 (Saccharomyces cerevisiae (strain ATCC 204508 / S288c)) (UniProt Q03530). In words: blockers of Rce1 CaaX peptide cleavage – biochemical, fluorescence, cell-free homogeneous, primary screen (AID 2563). The following applies: yeast membranes, quenched prenylated peptide cleavage fluorescence.
Turning to `CCc1nc2c(n1)c1c(non1O)c1c2no[n+]1[O-]`, the compound was called inactive.

Take `CP(=O)(Oc1ccccc1)N1CCOC1=O` (stereo not given): the result was inactive.

Turning to `Cc1ccc(NP(=O)(Oc2ccccc2)Oc2ccccc2)nc1`, the outcome was inactive.

As to `COc1ccc(OP(C)(=O)Nc2ccc(Br)cc2)cc1` (stereo not given), the outcome was inactive.

Turning to `COc1ccc(C2=NCC(CBr)S2)cc1` (stereo not given), the call was inactive.

Take `CCN(CC)CC(O)COC(=O)C(O)(c1ccccc1)C1CCCCC1` (stereo not given): the result was inactive.

Regarding `CN(C)C(=O)OCCc1n(C)cc[n+]1C`, the compound was called inactive.

`CC(C)=N/N=C(\N)N[N+](=O)[O-]`: the call was inactive.

For `CN(C)C(=O)c1c([N+](=O)[O-])cc([N+](=O)[O-])cc1[N+](=O)[O-]`, the compound was classed as inactive.

`CC1CCN(C(=O)Oc2c(Cl)cc(Cl)c3cccnc23)CC1`: the call was inactive.

As for `C[N+]1=C2C=CC=CC=C2SC12C([N+](=O)[O-])=CC([N+](=O)[O-])=C[C-]2[N+](=O)[O-]` (stereo not given), the compound was classed as inactive.

With `COc1ccccc1OP(C)(=O)Nc1ccccc1Br` (stereo not given), the compound was called inactive.

With `Nc1ccc([As](=O)(O)c2ccc(N)cc2)cc1`, the call was inactive.

Regarding `CC(C)(C)c1ccc(OP(C)(=O)O)cc1`, the outcome was inactive.

For `CP(=O)(Nc1ccc(Cl)cc1)Oc1ccc(F)cc1` (stereo not given), the compound was classed as inactive.

On to `Cc1ccc(OP(=O)(Nc2nccs2)Oc2ccc(C)cc2)cc1`, for which the call was inactive.

Turning to `COc1ccccc1OP(=O)(Nc1ccc(C)cn1)Oc1ccccc1OC`, the call was inactive.

Consider `COc1ccc(OP(C)(=O)Nc2ccccn2)cc1` (stereo not given), for which the outcome was inactive.

`CN1CCCC(OC(=O)C(c2ccccc2)c2ccccc2)C1` (stereo not given): the call was inactive.

Consider `CN(C)CCOC(=O)C(O)(c1ccccc1)C1CCCC1` (stereo not given), for which the compound was classed as inactive.

Turning to `Clc1ccc(Cl)c(NC2=NCC(CBr)S2)c1` (stereo not given), the call was inactive.

As for `NC(=O)c1cc([N+](=O)[O-])cc([N+](=O)[O-])c1N`, the call was inactive.

For the compound `Cc1ccc(N/C(=N/P(=O)(N2CCOCC2)N2CCOCC2)N2CCOCC2)cc1`, the outcome was inactive.

As to `COc1ccccc1OP(C)(=O)Nc1ccc(Br)cc1` (stereo not given), the compound was called inactive.

On to `COc1ccccc1OP(C)(=O)Nc1ccc(C)cc1C` (stereo not given), for which the call was inactive.

In the case of `CP(=O)(Nc1ccccn1)Oc1ccccc1` (stereo not given), the result was inactive.

Regarding `CCc1ccc(OP(C)(=O)O)cc1`, the compound was called inactive.

In the case of `Nc1cc(N)c2nonc2c1[N+](=O)[O-]`, the compound was classed as inactive.

On to `Cc1c(NP(C)(=O)Oc2ccc(C(C)C)cc2)c(=O)n(-c2ccccc2)n1C` (stereo not given), for which the result was inactive.

Regarding `O=[N+]([O-])c1cc([N+](=O)[O-])c(Nc2ccccn2)c([N+](=O)[O-])c1`, the call was inactive.

With `CC(C)CC(=O)NC(Sc1ccc(Cl)cc1)C(Cl)(Cl)Cl` (stereo not given), the compound was classed as inactive.

For `O=C(NC(Sc1ccncn1)C(Cl)(Cl)Cl)c1ccccc1` (stereo not given), the call was inactive.

On to `Cc1c2non([O-])c-2c(C)[n+](=O)[n+]1[O-]`, for which the result was inactive.

In the case of `Oc1ccccc1CNc1ccccn1`, the outcome was inactive.

`COc1ccccc1OP(C)(=O)Nc1ccc(C)c(C)c1` (stereo not given): the result was inactive.

As for `CN(C(=O)Cc1ccc(Cl)c(Cl)c1)[C@H]1CCCC[C@@H]1N1CCCC1`, the call was inactive.

On to `Cc1ccc(NP(=O)(Oc2ccccc2F)Oc2ccccc2F)nc1`, for which the result was inactive.

In the case of `Cc1cc(SC(NC(=O)c2ccc(F)cc2)C(Cl)(Cl)Cl)ncn1` (stereo not given), the outcome was inactive.

With `CCOP(=O)(Nc1ccccc1)OCC`, the outcome was inactive.

Consider `COc1ccc(OP(C)(=O)Nc2ccccc2Br)cc1` (stereo not given), for which the compound was classed as inactive.

`CC(=O)Nc1ccc([As](=O)(O)O)cc1`: the outcome was inactive.

As for `O=C(O)c1ccccc1[As](=O)(O)O`, the call was inactive.

Regarding `O=P(Nc1nc2ccc(Cl)cc2s1)(c1ccccc1)c1ccccc1`, the compound was classed as inactive.

In the case of `Cc1cc(C)cc(OP(C)(=O)Nc2cccc(C(F)(F)F)c2)c1` (stereo not given), the outcome was inactive.

On to `CCN(N=Nc1nonc1N)c1nonc1N`, for which the outcome was inactive.

In the case of `CP(=O)(Nc1ccc(Cl)cc1Cl)Oc1ccccc1` (stereo not given), the result was inactive.

As for `CP(=O)(OCCOc1ccccc1)OCCOc1ccccc1`, the result was inactive.

As for `Nc1cccc2ccc([As](=O)(O)O)cc12`, the result was inactive.

Consider `Cc1nc2ccc3ccccc3c2o1.O=[N+]([O-])c1cc([N+](=O)[O-])c(O)c([N+](=O)[O-])c1`, for which the result was inactive.

As to `O=[N+]([O-])c1cc([N+](=O)[O-])c(CCN2CCOCC2)c([N+](=O)[O-])c1`, the compound was called inactive.
